Source: publication PMC6152004 (Molecules : A Journal of Synthetic Chemistry and Natural …, 2017)

Protein sequences, listed by entry. Tags and fused reporters are not part of them. Residues count along the entry.
UniProt P06276, 29-602: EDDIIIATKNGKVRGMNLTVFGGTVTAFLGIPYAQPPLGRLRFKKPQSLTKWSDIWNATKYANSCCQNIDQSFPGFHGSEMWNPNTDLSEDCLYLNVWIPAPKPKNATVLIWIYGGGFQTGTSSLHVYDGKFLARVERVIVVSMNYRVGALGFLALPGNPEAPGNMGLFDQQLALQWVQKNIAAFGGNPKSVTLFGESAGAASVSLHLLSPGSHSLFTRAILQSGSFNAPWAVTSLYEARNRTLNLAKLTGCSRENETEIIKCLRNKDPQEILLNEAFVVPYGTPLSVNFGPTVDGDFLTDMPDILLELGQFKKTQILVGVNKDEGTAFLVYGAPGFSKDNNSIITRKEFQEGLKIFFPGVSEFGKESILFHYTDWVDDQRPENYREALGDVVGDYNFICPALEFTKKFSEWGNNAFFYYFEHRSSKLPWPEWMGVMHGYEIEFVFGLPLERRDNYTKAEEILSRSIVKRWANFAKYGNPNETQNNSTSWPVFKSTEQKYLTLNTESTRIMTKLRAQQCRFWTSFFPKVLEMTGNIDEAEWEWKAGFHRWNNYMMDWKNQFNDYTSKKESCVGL
UniProt P22303, 32-617 isoform P22303-2 limits assumed: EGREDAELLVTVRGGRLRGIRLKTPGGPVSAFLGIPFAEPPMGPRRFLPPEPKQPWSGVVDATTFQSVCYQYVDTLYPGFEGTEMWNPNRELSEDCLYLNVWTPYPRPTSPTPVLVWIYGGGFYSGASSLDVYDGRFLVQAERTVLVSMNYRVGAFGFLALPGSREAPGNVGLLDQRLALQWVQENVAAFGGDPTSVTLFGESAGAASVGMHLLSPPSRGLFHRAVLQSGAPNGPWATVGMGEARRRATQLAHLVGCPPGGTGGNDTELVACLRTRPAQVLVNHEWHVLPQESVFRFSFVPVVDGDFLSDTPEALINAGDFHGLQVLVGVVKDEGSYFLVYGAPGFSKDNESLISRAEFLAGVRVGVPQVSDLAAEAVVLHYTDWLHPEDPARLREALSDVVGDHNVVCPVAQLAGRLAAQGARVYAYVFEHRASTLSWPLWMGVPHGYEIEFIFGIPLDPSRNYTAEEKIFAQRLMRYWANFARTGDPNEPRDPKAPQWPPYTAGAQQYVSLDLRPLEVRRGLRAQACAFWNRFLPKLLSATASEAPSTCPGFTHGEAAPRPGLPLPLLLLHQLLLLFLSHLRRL

Legend:
Format in all cases: biochemical
[1] = target: human plasma butyrylcholinesterase (BChE) (Homo sapiens, UniProt P06276); settings: read-out: BChE (IC50)
[2] = target: T1, recombinant prolyl oligopeptidase (POP) (Homo sapiens, UniProt P48147); test: Prolyl oligopeptidase assay, substrate Z-Gly-Pro-p-nitroanilide; settings: read-out: POP (IC50), mean ± S.E.M. of three replications
T1 construct: purchased Sigma-Aldrich (Prague, Czech Republic)
T1 sequence (P48147 1-710): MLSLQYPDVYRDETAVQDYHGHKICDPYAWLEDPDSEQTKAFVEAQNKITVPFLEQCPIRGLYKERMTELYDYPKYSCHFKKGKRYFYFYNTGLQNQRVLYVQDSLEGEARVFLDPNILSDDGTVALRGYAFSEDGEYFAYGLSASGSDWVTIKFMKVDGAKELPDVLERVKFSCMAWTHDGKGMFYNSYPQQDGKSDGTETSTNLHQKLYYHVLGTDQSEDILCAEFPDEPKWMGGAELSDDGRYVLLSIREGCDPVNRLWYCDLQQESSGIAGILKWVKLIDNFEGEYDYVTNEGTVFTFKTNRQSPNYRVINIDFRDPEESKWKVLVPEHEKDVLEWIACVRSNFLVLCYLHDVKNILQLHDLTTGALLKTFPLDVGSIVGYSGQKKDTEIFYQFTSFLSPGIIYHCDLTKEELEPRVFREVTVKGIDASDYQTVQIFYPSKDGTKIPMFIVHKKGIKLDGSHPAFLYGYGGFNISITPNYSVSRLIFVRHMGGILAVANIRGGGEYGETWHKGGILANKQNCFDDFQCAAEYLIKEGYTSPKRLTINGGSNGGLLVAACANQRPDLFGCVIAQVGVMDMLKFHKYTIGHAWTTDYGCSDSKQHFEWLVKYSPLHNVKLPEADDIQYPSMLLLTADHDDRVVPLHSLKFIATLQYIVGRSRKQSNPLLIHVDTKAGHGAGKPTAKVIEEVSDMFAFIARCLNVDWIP

[3] = target: T2, human blood acetylcholinesterase (AChE) (Homo sapiens, UniProt P22303); test: AChE inhibition, modified Ellman's method, red blood cell lysate; settings: read-out: AChE (IC50); erythrocyte lysate AChE; mean ± S.E.M. of three replications
T2 construct: Red blood cell lysate was used as a source of AChE and human plasma as a source of BChE; from tissue; host or cells: human erythrocytes (lysate) from freshly drawn blood of healthy volunteers

Row | Substance | IC50 [1] | IC50 [2] | IC50 [3]
1 | (+)-laudanosine [Compound 1] | > 1000 µM | 341 ± 37.5 µM | –
2 | protopine [Compound 2] | 209 ± 17.7 µM | > 1000 µM | 230 ± 21 µM
